Patent US8097722B2 (priority 2008, dated 2012)

Columns and labels:
[1] = tested on: brain PMPMEase; test: Inhibition of brain PMPMEase by OPs (brain membrane Triton X-100 extract); format: biochemical, porcine; details: 1 mM OP, 3 h, 37° C., brain membrane Triton X-100 extract (47 μg protein), N=3
[2] = tested on: liver PMPMEase; test: Inhibition of liver PMPMEase by OPs (liver 40,000xg supernatant); format: biochemical, porcine; details: 1 mM OP, 1 h, 37° C., liver 40,000×g supernatant (19 μg protein), N=3

Compound	Brain Mean (mean percent inhibition relative to the controls) [1]	Liver Mean (mean percent inhibition relative to the controls) [2]
CC(C)OP(=S)(OC(C)C)SCCNS(=O)(=O)c1ccccc1	82%	76%
Fonofos	100%	66%
